# Measurements reported in PubChem BioAssay AID1224905 (ICCB-Longwood Screening Facility, Harvard Medical School, 2016).
# By UniProt entry, the sequences of proteins in these tests, tags left out.
# UniProt P08753, whole entry, looked up: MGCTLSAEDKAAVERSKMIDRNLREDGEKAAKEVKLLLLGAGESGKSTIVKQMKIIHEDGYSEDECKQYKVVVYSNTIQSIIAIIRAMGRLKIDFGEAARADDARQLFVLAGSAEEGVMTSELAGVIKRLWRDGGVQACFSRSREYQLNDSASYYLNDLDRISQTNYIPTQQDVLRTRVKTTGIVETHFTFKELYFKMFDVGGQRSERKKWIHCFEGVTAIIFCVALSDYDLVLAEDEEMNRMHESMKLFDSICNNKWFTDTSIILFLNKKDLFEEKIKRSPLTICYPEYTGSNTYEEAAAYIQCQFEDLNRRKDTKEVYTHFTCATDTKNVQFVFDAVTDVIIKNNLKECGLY
# About 880 (0.42%) of roughly 210,000 compounds were called active.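 The calls were made as follows: active = replicate mean at 85% of control or lower with very high polarization wells dropped (limit read from the data); inactive = the rest.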 Shown is part of a subset that was picked to be rich in actives.
# Molecular target: Guanine nucleotide-binding protein G(i) subunit alpha-3 (Rattus norvegicus) (UniProt P08753)
# Assay: inhibitors of GIV peptide binding to Galpha-i3, primary screen, biochemical, fluorescence polarization, FITC-GIV GBA peptide, rat Galphai3 (AID 1224905)
# Conditions: 90 min, stronger effect = lower value, scaled: aluminum fluoride 0%, vehicle 100%
row,SMILES,percent of control (FP)
1,COCCNC(=O)c1ccc(Cn2c(SCC(=O)NCc3ccccc3)nc3ccc(Br)cc3c2=O)cc1,97.2% (inactive)
2,N#C/C(=C\c1ccc(-c2ccccc2)o1)C(=O)Nc1ccccc1,36.5% (active)
3,CCOC(=O)c1ccc(-c2ccc(/C=C(\C#N)C(=O)Nc3ccc(OCC)cc3)o2)cc1,102% (inactive)
4,CCOC(=O)c1ccc(-c2ccc(/C=C(\C#N)C(=O)Nc3ccc(C)cc3)o2)cc1,99.2% (inactive)
5,CCNC(=O)N1CCCC(c2nc(C(C)C)cs2)C1 (configuration not stated),105% (inactive)
6,O=C(CN1CCN(C(=O)c2cccc(Cl)c2)CC1)Nc1nnc(-c2ccccc2)s1,98.2% (inactive)
7,CCOc1ccc(NC(=O)Cn2c(SCC)nc3ccccc32)cc1,98.2% (inactive)
8,O=c1[nH]c2c(c(=O)n1Cc1ccccc1)CCC2,110% (inactive)
9,Cc1cc2nc3c(=O)n(Cc4ccccc4)c(=O)[nH]c3nc2cc1N,72.2% (active)
10,Cc1cc2nc3[nH]c4ccccc4c3nc2cc1C,109% (inactive)
11,Cc1sc(NC(=O)c2ccccc2)c(C(Nc2ccccn2)c2cccnc2)c1C (configuration not stated),102% (inactive)
12,Fc1ccccc1CSc1nccn2nc(-c3ccc(Br)cc3)cc12,111% (inactive)
13,Cc1ccc(C2(c3ccc(C)cc3)CC2C(=O)Nc2cccc(C(F)(F)F)c2)cc1 (configuration not stated),104% (inactive)
14,Cc1ccc(OCCn2cc(/C=C3/C(=O)Nc4cc(Cl)ccc43)c3ccccc32)cc1C,35.2% (active)
15,COc1ccccc1OCCCn1cc(/C=C2/C(=N)N3C=CSC3=NC2=O)c2ccccc21,103% (inactive)
16,Cc1ccc(OCCn2cc(C(=O)c3ccccc3)c3ccccc32)cc1,99.6% (inactive)
17,CCc1cc2c(NC3CCCCC3)ncnc2s1,117% (inactive)
18,O=c1sc2ccccc2c2nc[nH]c12,99.7% (inactive)
19,O=C(Cn1c2c(c(-c3ccccc3Cl)cc1=O)CCC2)NC1CCCCC1,108% (inactive)
20,CNC(=O)CSc1nnc2[nH]c(=O)cc(C)n12,108% (inactive)
21,Cc1cc(N2CCN(c3ccccc3)CC2)n2c(nc3ccccc32)c1C#N,99.6% (inactive)
22,Cc1c(Cc2ccccc2)c(N2CCCCC2)n2c(nc3ccccc32)c1C#N,146% (inactive)

row,SMILES,percent of control (FP)
1,N#Cc1c(N2CCCCCC2)ncc2cc3ccccc3nc12,-18.1% (active)
2,Cc1cc(C(=O)NCCN2CCOCC2)c2c(=O)n(C)c(=O)n(C)c2n1,105% (inactive)
3,CC(=O)N[C@H]1[C@H](Oc2ccc(C)cc2)O[C@H](COC(C)=O)[C@@H](OC(C)=O)[C@@H]1OC(C)=O,131% (inactive)
4,CCOC(=O)CSc1ncn[nH]1,102% (inactive)
5,CCn1nc(C)cc1-c1nnc(SCC(=O)c2ccc(C)cc2)o1,108% (inactive)
6,CCN(CC)c1ccc2cc(-c3csc(-c4nc(-c5cc6ccc(N(CC)CC)cc6oc5=O)cs4)n3)c(=O)oc2c1,109% (inactive)
7,CCN(CC)c1ccc2oc(=O)c(C)nc2c1,-40.7% (active)
8,CCN(CC)c1ccc2cc(C(=O)O)c(=O)oc2c1,115% (inactive)
9,Cc1c(C(=O)NCC(c2ccccc2)c2c[nH]c3ccccc23)oc2ccc(Cl)cc12 (configuration not stated),105% (inactive)
10,O=C1NC(=O)/C(=C/c2ccc(-c3ccc([N+](=O)[O-])cc3Br)o2)S1,62.8% (active)
11,N=C1S/C(=C\c2ccc(-c3ccccc3[N+](=O)[O-])o2)C(=O)N1c1ccc2c(c1)OCO2,114% (inactive)
12,O=C1N/C(=C/c2ccc(-c3ccc([N+](=O)[O-])cc3Br)o2)C(=O)N1Cc1ccc(Cl)cc1,146% (inactive)
13,O=C(NCc1ccco1)c1cc2nc(-c3ccc(Cl)c(Cl)c3)cc(C(F)(F)F)n2n1,101% (inactive)
14,O=C(O)c1cc(NS(=O)(=O)c2ccc3c(c2)CCCC3)cnc1N1CCOCC1,80.8% (active)
15,Cn1c(=O)n(C)c2cc(N3CCOCC3)c(NS(=O)(=O)c3ccc4c(c3)CCCC4)cc21,103% (inactive)
16,O=C(O)c1cc(NS(=O)(=O)c2cc(F)ccc2F)cnc1N1CCC(N2CCCCC2)CC1,93.7% (inactive)
17,O=C(CSc1nnc(C2COc3ccccc3O2)n1-c1ccccc1)c1cccc([N+](=O)[O-])c1 (configuration not stated),99.2% (inactive)
18,COCCNC(=O)Cn1cc(/C=C2\C(=O)NC(=O)N(C3CCCCC3)C2=O)c2ccccc21,-38.3% (active)
19,COc1ccccc1N1C(=O)NC(=O)/C(=C/c2cn(C(C)=O)c3ccccc23)C1=O,118% (inactive)
20,Cc1cc(Br)ccc1N1C(=O)NC(=O)/C(=C/c2cn(CC(=O)N3CCOCC3)c3ccccc23)C1=O,103% (inactive)
21,NC(=O)c1nsc2c(=O)n(CC(=O)NCc3ccco3)cnc12,95.4% (inactive)
22,CCOC(=O)c1c(NC(=S)NC(=O)c2ccccc2)sc2c1CC(C)(CC)OC2 (configuration not stated),107% (inactive)

row,SMILES,percent of control (FP)
1,Cc1cc(C)c2[nH]c(=O)c(NC(N)=S)nc2c1,109% (inactive)
2,Cc1c(C(=O)NCC2COc3ccccc3O2)sc2ncnc(N3CCCCC3C)c12 (configuration not stated),103% (inactive)
3,COc1ccccc1N(Cc1nc2nc(C)cc(C)n2n1)C(=O)C(C)(C)C,105% (inactive)
4,COc1cc(-c2noc(-c3cc(-c4cc(C)ccc4C)n[nH]3)n2)ccc1OC(C)C,109% (inactive)
5,O=C(NCc1ccc2c(c1)OCO2)C1CCCN(S(=O)(=O)N2CCOCC2)C1 (configuration not stated),105% (inactive)
6,CN1C(=O)/C(=C/c2ccco2)SC1=Nc1cccc(C(=O)O)c1,103% (inactive)
7,CN1CCN(NC(=O)CCN2C(=O)/C(=C\c3ccco3)SC2=S)CC1,106% (inactive)
8,O=C(O)CCC(C(=O)O)N1C(=O)/C(=C\c2ccco2)SC1=S (configuration not stated),79.9% (active)
9,COc1ccc(S(=O)(=O)N2CCC(NC(=O)NCc3ccc(C)cc3)CC2)cc1,98.6% (inactive)
10,O=C(NCCCN1CCC(N2CCCCC2)CC1)c1nnc(C(=O)Nc2ccccc2)s1,101% (inactive)
11,O=C(CCc1ccccc1)N1CCN(C(=O)c2cc3cc(Br)ccc3[nH]2)CC1,108% (inactive)
12,CN1C=C/C(=C\C=C2/C=Nc3ccccc32)c2ccccc21,-76.3% (active)
13,CCCCN(CCCNC(=O)Nc1cn(CC(C)C)c(=O)c2ccccc12)Cc1ccccc1,98.7% (inactive)
14,COc1ccc(S(=O)(=O)Nc2cc(C(=O)O)cnc2N2CCC(Cc3ccccc3)CC2)cc1,102% (inactive)
15,COc1ccc(N2C(=O)/C(=C/c3cc(Cl)c(OCC(=O)O)c(Cl)c3)C(=O)NC2=S)cc1,94.6% (inactive)
16,Cc1ccc(N2C(=O)/C(=C/c3ccc(OCC(=O)O)c(Br)c3)C(=O)NC2=S)cc1,82.1% (active)
17,COC(=O)COc1ccc(/C=C2\C(=O)NC(=S)N(c3ccc(Br)cc3)C2=O)cc1OC,104% (inactive)
18,Cc1oc(C2CCN(C(=O)Cc3ccsc3)CC2)nc1C(=O)N1CCCC1,99.3% (inactive)
19,CC(C)CC(C(=O)Nc1ccc(Cl)cc1)N1C(=O)c2ccccc2C1=O (configuration not stated),108% (inactive)
20,CCOC(=O)c1c(NC(=O)C(C)Sc2nnc(CNC(=O)c3cccs3)n2C2CCCCC2)sc2c1CCCC2 (configuration not stated),109% (inactive)
21,CC[n+]1c(C)n(-c2ccccc2)c2ccc(N)cc21,101% (inactive)
22,CC[n+]1c(/C=C/C=C2\N(C)c3ccccc3C2(C)C)n(-c2ccccc2)c2ccc(Cl)cc21,-32.2% (active)

row,SMILES,percent of control (FP)
1,COc1ccccc1CNC(=O)C1CCCN1c1nn2c(=O)cc(C)nc2s1 (configuration not stated),96.8% (inactive)
2,O=C(/C=C/c1ccccc1)Nc1cc(C(=O)N2CCc3ccccc3C2)ccc1N1CC2CC(C1)c1cccc(=O)n1C2 (configuration not stated),108% (inactive)
3,CCNc1cc(Nc2ccccc2)c2c3c(onc13)-c1ccccc1C2=O,104% (inactive)
4,CCN(CC)c1cc(NC2CCCCC2)c2c3c(onc13)-c1ccccc1C2=O,-7.19% (active)
5,CCOC(=O)N1CCN(c2cc(Nc3c(C)cc(C)cc3C)c3c4c(onc24)-c2ccccc2C3=O)CC1,140% (inactive)
6,CC1CCN(S(=O)(=O)c2ccc3nn(CC(=O)OC(C)C)c(=O)n3c2)CC1,103% (inactive)
7,COc1ccccc1-c1c(C(F)(F)F)oc2c(CN3CCN(C)CC3)c(O)ccc2c1=O,102% (inactive)
8,Cc1nn(CCC(=O)NC2CCCC2)c(=O)c2nn(-c3ccccc3)c(C)c12,98.5% (inactive)
9,CC(=O)Nc1ccc(Nc2c3c4c(cccc4[nH]c2=O)C(=O)c2ccccc2-3)cc1,60.9% (active)
10,CC(=O)Nc1ccc(NS(=O)(=O)c2cc(S(=O)(=O)Nc3ccc(NC(C)=O)cc3)c3cccc4c3c2NC4=O)cc1,108% (inactive)
11,CC(C)c1ccc(NC(=O)c2ccc3c(O)c(S(=O)(=O)c4ccccc4)c(=O)[nH]c3c2)cc1,98.9% (inactive)
12,CCC(C)OC(=O)C1=C(C)NC2=C(C(=O)CC(c3ccc(OC)cc3)C2)C1c1cc2c(cc1[N+](=O)[O-])OCO2 (configuration not stated),103% (inactive)
13,CCCCc1nnc2sc(-c3cccc(N(C)C)c3)nn12,97.3% (inactive)
14,Cc1nn(C)c(C)c1CCN(C)C(=O)Nc1ccc(Br)cc1F,105% (inactive)
15,COc1ccc(-n2ccc(=O)c(-c3nc(-c4ccc(F)c(Cl)c4)no3)n2)cc1,102% (inactive)
16,Fc1cccc(CNC2=NCCNC23CCCCCC3)c1,112% (inactive)
17,COC1=C(N2CCOCC2)C(=O)c2ccccc2C1=O,81.8% (active)
18,COc1ccc(N2CCN(C(C)=C3C(=O)c4ccccc4C3=O)CC2)cc1,97.8% (inactive)
19,Cc1cc(N2CCOCC2)ccc1C=C1C(=O)c2ccccc2C1=O,123% (inactive)
20,Nc1nc(=O)n(C2OC(CO)C(O)C2O)cc1Br (configuration not stated),107% (inactive)
21,CCN1CCN(Cc2c(O)ccc3c(=O)c(Oc4ccccc4Br)c(C(F)(F)F)oc23)CC1,96.7% (inactive)
